Reference: patent publication US12552790B2, “Positive modulators of the muscarinic acetylcholine receptor M4” (Vanderbilt University, priority 2023, dated 2026)

Tested on: four strains of Salmonella
Conditions: 5-100 μM

SMILES: [2H]C1([2H])Oc2ccc(OC3CCN(c4nc5c(cc4C)C(=O)NC5)CC3)cc2OC1([2H])[2H] [Compound 3, 2-(4-((2,3-dihydrobenzo[b][1,4]dioxin-6-yl-2,2,3,3-d4)oxy)piperidin-1-yl)-3-methyl-6,7-dihydro-5H-pyrrolo[3,4-b]pyridin-5-one]
- Ames test result: clean
